# Earlier results, collected in US9987257B2, “Pediatric oral suspension formulations of amoxicillin and clavulanate potassium and method for using same” (priority 2012, dated 2018).
# Legend:
# children = conditions: in vivo
# pediatric patients = conditions: human, in vivo
substance,measurement,setting,value
Amoxicillin-Clavulanate,Mastoiditis,children,0 number of children (percent)
same,Treatment discontinued because of rash,children,"**In each group, treatment was discontinued in one child because or rash."
same,Treatment discontinued because of vomiting,children,"∥In the amoxicillin-clavulanate group, treatment was discontinued in one child because of vomiting."
same,pediatric patients experiencing some diarrhea and/or vomiting,pediatric patients,~20%
